Assay results reported in patent US20240002326A1, “COMPOUNDS AND USE THEREOF IN METHODS OF TREATMENT” (The University of Queensland, priority 2016, published 2024).

By UniProt entry, the sequences of proteins in these tests, tags left out. Residues count along the entry.
UniProt P40645, 620-688 limits assumed: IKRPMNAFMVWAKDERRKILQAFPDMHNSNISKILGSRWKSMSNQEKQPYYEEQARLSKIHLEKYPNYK
UniProt P35713, whole entry: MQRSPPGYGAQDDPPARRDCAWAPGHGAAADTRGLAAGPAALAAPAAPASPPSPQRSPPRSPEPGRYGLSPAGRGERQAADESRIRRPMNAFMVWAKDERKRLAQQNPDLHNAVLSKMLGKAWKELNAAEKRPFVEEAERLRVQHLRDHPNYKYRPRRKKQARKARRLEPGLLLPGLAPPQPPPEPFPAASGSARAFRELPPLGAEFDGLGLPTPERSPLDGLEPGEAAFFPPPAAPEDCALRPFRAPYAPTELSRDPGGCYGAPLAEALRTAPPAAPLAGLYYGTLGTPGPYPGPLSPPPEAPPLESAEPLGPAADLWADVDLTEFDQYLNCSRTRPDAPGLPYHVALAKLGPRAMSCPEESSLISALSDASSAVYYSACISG

How the values were obtained:
[1] = biological target: SOX6 HMG fragment (Mus musculus (Mouse), UniProt P40645); assay: FP DNA-binding competition assay, SOX6 HMG fragment; settings: read-out: DNA-binding inhibition IC50, SOX6 HMG; HMG only fragment
Protocol: Mouse SOX HMG fragments. The HMG domains of mouse SOX2 (Group B), SOX11 (Group C), SOX6 (Group D), SOX9 (Group E), SOX18 (Group F) and SOX15 (Group G) were BP cloned from cDNA templates (IMAGE cDNA clone IDs: Sox18: 3967084; Sox9: 5354229; Sox4: 6822618) into a pDONRTM221 pENTRY vector, sequenced and recombined into a pETG20A or a pHisMBP expression plasmid using Gateway®LR Technology (Ng et al., 2012). Constructs were transformed into Escherichia coli BL21(DE3) cells (Luria-Bertani, 100 μg/ml Ampicillin).
The DNA-binding competition assay was performed in black 384-well plates, with mouse full length SOX18, or SOX-HMG fragments. All experiments were performed using a fluorescently-labelled Prox1-DNA element. […]
The DNA-binding competition assay was performed in 25 uL, in black 384-well plates, using either 30 mM HEPES (N-2-Hydroxyethylpiperazine-N′-2-Ethanesulfonic Acid) (pH 7.5, with 100 mM KCl, 40 mM NaCl, 10 mM NH4OAc, […], 2 mM MgCl2, 0.5 mM EDTA, 0.01% NP-40) for mouse full length SOX18, or Tris-NaCl (10 mM Tris pH 8.0 and 100 mM NaCl) for SOX-HMG fragments. […] After mixing protein, DNA probe and compound, plates were sealed and briskly agitated in the dark for 5 minutes at room temperature, 10 minutes at 37° C., and 30 minutes at room temperature, before reading fluorescence polarization on a Tecan M1000Pro (λexc=485 nm, λem=525 nm). […]

[2] = test system: 4T1.2 mammary carcinoma cells; assay: 4T1.2 mammary carcinoma mouse model of breast cancer metastasis; type: in vivo, BALB/c mice
[3] = test system: zebrafish larvae; assay: Zebrafish vascular phenotype, tg(fli1a:eGFP,−6.5kdrl:mCherry)
[4] = biological target: SOX18-MEF2C interaction (Homo sapiens (Human), UniProt P35713); assay: ALPHAScreen SOX18-MEF2C protein-protein interaction

O=C(O)c1c(O)cccc1CCc1ccc2ccccc2c1
IC50 [1]: 270 to 310 µM | decrease in the number of endothelial cells (ERG) in tumors ([2]; 25 mg/kg/day): 48% | decrease in the volume of the blood vessels (EMCN) in tumors ([2]; 25 mg/kg/day): 55% | reduction of density of tumor associated lymphatic vessels (PDPN) ([2]; 25 mg/kg/day): 65% | reduction of number of lymphatic endothelial cells (PROX1) ([2]; 25 mg/kg/day): 70% | size of the primary tumor ([2]; 25 mg/kg/day): unchanged | median latency (survival) ([2]; 25 mg/kg/day oral, day 3 to day 12): 44 days | median latency (survival), dose response ([2]; 50 mg/kg Sm4, vehicle 40 days): 73 days | reduction in the mean number of lung metastases ([2]; day 28 after tumor inoculation, 25 mg/kg/day): 67% | qRT-PCR of blood vascular markers ([3]; 1.5 μM Sm4, 24 and 48 hpf, vs DMSO): significant dysregulation of arterial and venous genes | vascular phenotype ([3]; 1.5 μM Sm4 from 16 hpf): enlarged posterior cardinal vein (PCV) at the expense of the dorsal aorta (DA) | Sox7 specific phenotype (lateral dorsal artery) ([3]; zebrafish, in vivo): minor malformation to the LDA | effect on SOX18-MEF2C interaction [4]: no effect
